Literature values, collected in US20240398651A1 (Neuro-Innovators, LLC., priority 2021, published 2024).

Molecular target: angiotensin II receptor type 1 (AT1) (Homo sapiens, UniProt P30556)
Conditions: selectivity AT1 over AT2

binding affinity greater for AT1 than AT2: 3000 times
SMILES: CCCc1nc2c(C)cc(-c3nc4ccccc4n3C)cc2n1Cc1ccc(-c2ccccc2C(=O)O)cc1 [Telmisartan]
